In ChEMBL document CHEMBL1128497, “Synthesis and in vitro and in vivo antitumor activity of a series of trans platinum antitumor complexes” (J Med Chem, 1995):
Values joined by “and” are separate entries in the source; they are usually repeats but may differ in a detail not shown here. Identical values can stand only once.

Tests used:
[1] = In vivo antitumor activity by i.p. administration against murine ADJ/PC6 (sc) plasmacytoma.; type: ADME, organism-based; settings: mouse, ip
In short: (§1)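 Murine solid ADJ/PC6 plasmacytoma (line 1: its subline selected for acquired cisplatin resistance), 1 mm3 fragments implanted sc. On day 20, single ip injection at halving doses as sonicated suspension in arachis oil. Tumours dissected and weighed 10 days later, treated vs control. ED90 = dose reducing tumour mass by 90%; therapeutic index = MTD/ED90; LD50 also reported.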

[2] = Therapeutic index is the ratio of LD50 and ED90 at which in vivo antitumor activity against acquired cisplatin resistant ADJ/PC6 plasmacytoma is observed.; type: ADME, organism-based, Plasma
[3] = tested on: Mus musculus; assay: In Vivo Antitumor activity against the acquired cisplatin-resistant ADJ/PC6 Plasmacytoma (ADJ/PC6cisR) in mice; type: ADME, organism-based; in short: as §1
[4] = Therapeutic index is the ratio of LD50 and ED90 at which in vivo antitumor activity against murine AD/PC6 sc plasmacytoma is observed.; type: organism-based, Plasma; settings: mouse

Substance	LD50 [1]	further results
trans-a-Ammine-b,d-dichloro-c,e-dihydroxo-f-(quinuclidine)-platinium (IV)	7.4 mg/kg	
trans-a,f-Dichloro-b,d-bis(cyclohexylamine)-c,e-dihydroxo-platinium (IV)	> 100 mg/kg	
trans-a-ammine-b,d-dichloro-f-(cyclohexylamine)-c,e-bis-(ethylcarbamato)platinium (IV)	465 mg/kg	
trans-Amminetetrachloro(cyclohexylamine)-platinium (IV)	14.5 mg/kg	
trans-a-Ammine-b,d-dichloro-c,e-dihydrooxy-f-(ethylamine)-platinium (IV)	50 mg/kg	
trans-Amminetetrachloro(quinuclidine)-platinium (IV)	17.5 mg/kg	
trans-a-Ammine-b,d-dichloro-c,e-dihydroxy-f-(diethylamine)-platinium (IV)	35 mg/kg	
trans-a-ammine-b,d-dichloro-f-(cyclohexylamine)-c,e-dihydroxoplatinium (IV)	8.8 mg/kg and 10.5 mg/kg and 17.5 mg/kg	Therapeutic index [2]: 1.9; LD50 [3]: 8.8 mg/kg; Therapeutic index [4]: 11.6
